From ChEMBL document CHEMBL5136992, “Fascinating Transformation of SAM-Competitive Protein Methyltransferase Inhibitors from Nucleoside Analogues to Non-Nucleoside Analogues” (J Med Chem, 2022)

Chains of the proteins cited; added tags and fusions are not shown.
UniProt Q15910, whole entry: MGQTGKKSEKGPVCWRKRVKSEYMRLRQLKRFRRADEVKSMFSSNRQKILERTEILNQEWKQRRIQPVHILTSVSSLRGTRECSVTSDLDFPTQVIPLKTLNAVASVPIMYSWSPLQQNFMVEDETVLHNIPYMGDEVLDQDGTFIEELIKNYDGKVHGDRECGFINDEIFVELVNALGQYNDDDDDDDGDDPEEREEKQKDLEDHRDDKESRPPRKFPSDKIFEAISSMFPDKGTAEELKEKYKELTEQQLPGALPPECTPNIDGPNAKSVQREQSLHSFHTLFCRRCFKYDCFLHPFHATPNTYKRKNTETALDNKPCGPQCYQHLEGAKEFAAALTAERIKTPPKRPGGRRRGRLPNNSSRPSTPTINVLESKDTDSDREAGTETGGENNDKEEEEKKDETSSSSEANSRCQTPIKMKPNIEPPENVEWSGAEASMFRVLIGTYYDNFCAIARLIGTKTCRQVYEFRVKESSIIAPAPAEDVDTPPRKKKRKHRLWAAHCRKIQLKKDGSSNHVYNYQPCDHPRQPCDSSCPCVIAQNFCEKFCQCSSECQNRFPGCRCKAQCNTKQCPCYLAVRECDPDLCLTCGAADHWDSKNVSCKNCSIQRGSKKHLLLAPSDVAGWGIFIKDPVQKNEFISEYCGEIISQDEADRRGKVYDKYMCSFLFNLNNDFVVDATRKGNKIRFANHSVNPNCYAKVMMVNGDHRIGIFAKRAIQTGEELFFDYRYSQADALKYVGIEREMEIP

Biological target: Histone-lysine N-methyltransferase EZH2 (Homo sapiens, UniProt Q15910)
Test: Inhibition of EZH2 (unknown origin)

IC50: 1.2 nM
Compound: CCCc1cc(C)[nH]c(=O)c1CNC(=O)c1cc(-c2ccnc(N3CCN(C)CC3)c2)cc2c1cnn2C(C)C
